Measured values reported in paper PMC10099707 (Neuropathology and Applied Neurobiology, 2022).

Biological target: T1, HDAC4 (mouse (endogenous in hippocampal tissue), UniProt Q6NZM9 1-1076)
T1 sequence (looked up): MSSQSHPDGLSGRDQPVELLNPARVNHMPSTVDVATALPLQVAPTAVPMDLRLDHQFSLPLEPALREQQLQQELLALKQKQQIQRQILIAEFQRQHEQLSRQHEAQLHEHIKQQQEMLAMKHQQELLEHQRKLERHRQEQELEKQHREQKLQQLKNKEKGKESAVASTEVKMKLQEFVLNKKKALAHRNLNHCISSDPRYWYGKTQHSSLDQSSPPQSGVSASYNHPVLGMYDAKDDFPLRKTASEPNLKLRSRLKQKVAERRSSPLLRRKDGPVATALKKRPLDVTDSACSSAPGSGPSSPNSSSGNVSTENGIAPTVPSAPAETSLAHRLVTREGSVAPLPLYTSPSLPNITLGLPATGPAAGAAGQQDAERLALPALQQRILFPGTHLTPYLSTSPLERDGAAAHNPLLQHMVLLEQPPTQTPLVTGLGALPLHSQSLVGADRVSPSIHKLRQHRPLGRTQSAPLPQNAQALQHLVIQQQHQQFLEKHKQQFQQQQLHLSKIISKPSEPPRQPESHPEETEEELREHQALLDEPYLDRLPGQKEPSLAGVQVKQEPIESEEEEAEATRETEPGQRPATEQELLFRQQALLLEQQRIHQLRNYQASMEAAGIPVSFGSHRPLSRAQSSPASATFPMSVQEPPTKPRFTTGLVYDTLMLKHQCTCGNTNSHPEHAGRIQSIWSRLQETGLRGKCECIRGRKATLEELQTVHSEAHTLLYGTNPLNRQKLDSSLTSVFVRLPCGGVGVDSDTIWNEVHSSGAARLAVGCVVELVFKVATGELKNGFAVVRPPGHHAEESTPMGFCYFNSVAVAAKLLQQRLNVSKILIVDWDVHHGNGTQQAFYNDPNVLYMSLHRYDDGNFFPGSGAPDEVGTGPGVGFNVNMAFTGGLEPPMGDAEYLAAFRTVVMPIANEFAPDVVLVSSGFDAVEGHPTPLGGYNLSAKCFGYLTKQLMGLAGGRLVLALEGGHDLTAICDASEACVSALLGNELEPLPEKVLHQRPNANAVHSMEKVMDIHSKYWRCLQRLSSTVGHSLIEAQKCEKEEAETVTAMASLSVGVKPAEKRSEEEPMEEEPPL
Assay: co-IP

B1: GluA1 subunit of AMPA receptor (AMPAR) (receptor, mouse (endogenous in hippocampal tissue), UniProt P23818 19-907, looked up)
chain: ANFPNNIQIGGLFPNQQSQEHAAFRFALSQLTEPPKLLPQIDIVNISDSFEMTYRFCSQFSKGVYAIFGFYERRTVNMLTSFCGALHVCFITPSFPVDTSNQFVLQLRPELQEALISIIDHYKWQTFVYIYDADRGLSVLQRVLDTAAEKNWQVTAVNILTTTEEGYRMLFQDLEKKKERLVVVDCESERLNAILGQIVKLEKNGIGYHYILANLGFMDIDLNKFKESGANVTGFQLVNYTDTIPARIMQQWRTSDARDHTRVDWKRPKYTSALTYDGVKVMAEAFQSLRRQRIDISRRGNAGDCLANPAVPWGQGIDIQRALQQVRFEGLTGNVQFNEKGRRTNYTLHVIEMKHDGIRKIGYWNEDDKFVPAATDAQAGGDNSSVQNRTYIVTTILEDPYVMLKKNANQFEGNDRYEGYCVELAAEIAKHVGYSYRLEIVSDGKYGARDPDTKAWNGMVGELVYGRADVAVAPLTITLVREEVIDFSKPFMSLGISIMIKKPQKSKPGVFSFLDPLAYEIWMCIVFAYIGVSVVLFLVSRFSPYEWHSEEFEEGRDQTTSDQSNEFGIFNSLWFSLGAFMQQGCDISPRSLSGRIVGGVWWFFTLIIISSYTANLAAFLTVERMVSPIESAEDLAKQTEIAYGTLEAGSTKEFFRRSKIAVFEKMWTYMKSAEPSVFVRTTEEGMIRVRKSKGKYAYLLESTMNEYIEQRKPCDTMKVGGNLDSKGYGIATPKGSALRGPVNLAVLKLSEQGVLDKLKSKWWYDKGECGSKDSGSKDKTSALSLSNVAGVFYILIGGLGLAMLVALIEFCYKSRSESKRMKGFCLIPQQSINEAIRTSTLPRNSGAGASGGSGSGENGRVVSQDFPKSMQSIPCMSHSSGMPLGATGL
- fold change AD vs WT of the co-IP band ratio GluA1/HDAC4: 0.73 fold (AD vs WT)
